{"sequences": {"note": "The chains behind the UniProt entries cited, without tags or fusion partners.", "UniProt Q05940, whole entry": "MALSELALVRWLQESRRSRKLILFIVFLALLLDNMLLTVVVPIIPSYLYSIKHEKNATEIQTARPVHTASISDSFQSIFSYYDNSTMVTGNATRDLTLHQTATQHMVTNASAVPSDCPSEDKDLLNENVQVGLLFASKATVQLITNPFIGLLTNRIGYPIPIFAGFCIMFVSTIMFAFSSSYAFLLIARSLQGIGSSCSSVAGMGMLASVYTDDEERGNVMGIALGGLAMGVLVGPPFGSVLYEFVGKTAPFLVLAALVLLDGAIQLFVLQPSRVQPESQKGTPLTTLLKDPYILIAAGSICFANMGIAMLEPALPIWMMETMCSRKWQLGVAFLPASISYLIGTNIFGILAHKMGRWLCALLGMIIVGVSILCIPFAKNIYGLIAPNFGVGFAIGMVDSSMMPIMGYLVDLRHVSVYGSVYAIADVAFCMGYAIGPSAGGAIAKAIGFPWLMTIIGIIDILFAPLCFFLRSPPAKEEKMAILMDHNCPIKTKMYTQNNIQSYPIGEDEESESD"}, "source": "patent US20240197714A1", "about": "“METHODS FOR THE ADMINISTRATION OF CERTAIN VMAT2 INHIBITORS” (Neurocrine Biosciences, Inc., priority 2021, published 2024)", "biological_target": "T1, VMAT2 (Homo sapiens, UniProt Q05940)", "T1 construct": "Eurofins Panlabs, Inc. (named only as the place where the ligand's KD was obtained)", "test": "VMAT2 competitive radioligand binding assay", "procedure": "Assays were performed under conditions described in the accompanying “Methods” section of this report. Where presented, IC50 values were determined by a non-linear, least squares regression analysis using MathIQ™ (ID Business Solutions Ltd., UK). […] Where presented, the Hill coefficient (nH), defining the slope of the competitive binding curve, was calculated using MathIQ™.", "data": [{"smiles": "[2H]C([2H])([2H])Oc1cc2c(cc1OC([2H])([2H])[2H])[C@@H]1C[C@H](O)[C@@H](CC(C)C)CN1CC2", "note": "[[−]-α-DHTBZ, (−)-α-3-isobutyl-9,10-di(methoxy-d3)-1,3,4,6,7, 11b-hexahydro-2H-pyrido[2,1-a]isoquinolin-2-ol]", "values": [{"measurement": "VMAT2 inhibition in vitro (in words)", "result": "inactive"}]}, {"smiles": "[2H]C([2H])([2H])Oc1cc2c(cc1OC([2H])([2H])[2H])[C@@H]1C[C@@H](O)[C@@H](CC(C)C)CN1CC2", "note": "[[−]-β-DHTBZ, (−)-β-3-isobutyl-9,10-di(methoxy-d3)-1,3,4,6,7,11b-hexahydro-2H-pyrido[2,1-a]isoquinolin-2-ol]", "values": [{"measurement": "VMAT2 inhibition in vitro (in words)", "result": "inactive"}]}]}
